Only a part is listed here, and it is no random draw.
Key:
[1] = probe aLAP1 signal on lysate-treated microarray – cell lysate, small-molecule microarray, COS7 lysate, primary screen (AID 1124); conditions: probe aLAP1, fluorescence, higher = more signal;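 further: lysate comes from COS7 cells expressing LAP1 and is applied at 0.3 µg/mL; score merges spot fluorescence near 667 nm with signal-to-noise over triplicate slides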
Sam68 (KHDRBS1) = test: compounds binding KHDRBS1 protein – biochemical, small-molecule microarray, 635 nm fluorescence, primary screen (AID 1125); conditions: higher = more signal;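 further: score merges 667 nm channel intensity with signal to noise over triplicate slides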
[2] = system: Chordin-like protein 2 (CHRDL2); test: compounds binding chordin-like 2 – biochemical, small-molecule microarray, 635 nm fluorescence, primary screen (AID 1126); conditions: fluorescence 635 nm, higher = more signal;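 further: printed compound slides probed with Chrdl2 protein at 4 µg/mL for 1 h at 4 C; score merges 667 nm emission intensity with signal to noise over three replicate slides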
[3] = biological target: Concanavalin-A (Canavalia ensiformis) (UniProt P02866); test: compounds binding concanavalin A lectin – biochemical, small-molecule microarray, Alexa647 label, 635 nm, artefact control for SMM control protein annotation, primary screen (AID 1127); conditions: ConA-A647 binding fluorescence, higher = more signal;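 further: z combines 667 nm emission intensity with signal-to-noise across three replicate slides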
[4] = compounds binding Alexa647 anti-His antibody – biochemical, small-molecule microarray, 635 nm fluorescence, artefact control for SMM control protein annotation, primary screen (AID 1128); conditions: higher = more signal;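 further: score merges feature fluorescence with signal-to-noise for each printed compound spot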
[5] = biological target: Focal adhesion kinase 1 (Homo sapiens) (UniProt Q05397); test: PTK2 protein binding on printed compound slides – biochemical, small-molecule microarray, 635/667 nm fluorescence, BSA, DTT, primary screen (AID 1130); conditions: 635 nm fluorescence, higher = more signal;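 further: composite of spot emission at 667 nm and signal to noise over triplicate slides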
[6] = system: Fibrinogen (Alexa647-labelled); test: Alexa647-fibrinogen binding to printed small molecules – biochemical, small-molecule microarray, 635/667 nm fluorescence, artefact control for SMM control-protein annotation, profiling panel (AID 1131); conditions: fibrinogen-A647 binding fluorescence, higher = more signal;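 further: z-score merges 667 nm fluorescence with per-spot signal-to-noise over triplicate slides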
[7] = biological target: Follistatin (Homo sapiens) (UniProt P19883); test: FST protein binding to printed compounds – biochemical, small-molecule microarray, 635/667 nm fluorescence, primary screen (AID 1132); conditions: 635 nm fluorescence, higher = more signal
[8] = biological target: Fibroblast growth factor 2 (Homo sapiens) (UniProt P09038); test: basic fibroblast growth factor binding to printed compounds – biochemical, small-molecule microarray, 635/667 nm fluorescence, primary screen (AID 1133); conditions: FGF2, fluorescence 635/667, higher = more signal
[9] = JC-1 mitochondrial potential readout, lung cancer cells – cell-based, A549, JC-1 fluorescence, basal, 24 h, 100 nL, profiling panel (AID 1138); conditions: higher = more signal;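 further: A549 lung adenocarcinoma cells under basal conditions with no added stimulus; test concentration not given here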

Chains of the proteins cited; added tags and fusions are not shown. Lines headed by an entry give the natural chain unless they say otherwise; changes in a name come on top.
UniProt P02866, whole entry, looked up: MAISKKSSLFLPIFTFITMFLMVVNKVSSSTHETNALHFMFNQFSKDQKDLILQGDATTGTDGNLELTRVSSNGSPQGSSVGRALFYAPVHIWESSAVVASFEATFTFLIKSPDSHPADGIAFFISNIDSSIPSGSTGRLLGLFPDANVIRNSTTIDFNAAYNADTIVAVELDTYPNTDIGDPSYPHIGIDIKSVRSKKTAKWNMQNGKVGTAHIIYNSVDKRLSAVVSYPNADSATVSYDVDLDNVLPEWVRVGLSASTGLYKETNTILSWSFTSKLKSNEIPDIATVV
UniProt Q05397, whole entry, looked up: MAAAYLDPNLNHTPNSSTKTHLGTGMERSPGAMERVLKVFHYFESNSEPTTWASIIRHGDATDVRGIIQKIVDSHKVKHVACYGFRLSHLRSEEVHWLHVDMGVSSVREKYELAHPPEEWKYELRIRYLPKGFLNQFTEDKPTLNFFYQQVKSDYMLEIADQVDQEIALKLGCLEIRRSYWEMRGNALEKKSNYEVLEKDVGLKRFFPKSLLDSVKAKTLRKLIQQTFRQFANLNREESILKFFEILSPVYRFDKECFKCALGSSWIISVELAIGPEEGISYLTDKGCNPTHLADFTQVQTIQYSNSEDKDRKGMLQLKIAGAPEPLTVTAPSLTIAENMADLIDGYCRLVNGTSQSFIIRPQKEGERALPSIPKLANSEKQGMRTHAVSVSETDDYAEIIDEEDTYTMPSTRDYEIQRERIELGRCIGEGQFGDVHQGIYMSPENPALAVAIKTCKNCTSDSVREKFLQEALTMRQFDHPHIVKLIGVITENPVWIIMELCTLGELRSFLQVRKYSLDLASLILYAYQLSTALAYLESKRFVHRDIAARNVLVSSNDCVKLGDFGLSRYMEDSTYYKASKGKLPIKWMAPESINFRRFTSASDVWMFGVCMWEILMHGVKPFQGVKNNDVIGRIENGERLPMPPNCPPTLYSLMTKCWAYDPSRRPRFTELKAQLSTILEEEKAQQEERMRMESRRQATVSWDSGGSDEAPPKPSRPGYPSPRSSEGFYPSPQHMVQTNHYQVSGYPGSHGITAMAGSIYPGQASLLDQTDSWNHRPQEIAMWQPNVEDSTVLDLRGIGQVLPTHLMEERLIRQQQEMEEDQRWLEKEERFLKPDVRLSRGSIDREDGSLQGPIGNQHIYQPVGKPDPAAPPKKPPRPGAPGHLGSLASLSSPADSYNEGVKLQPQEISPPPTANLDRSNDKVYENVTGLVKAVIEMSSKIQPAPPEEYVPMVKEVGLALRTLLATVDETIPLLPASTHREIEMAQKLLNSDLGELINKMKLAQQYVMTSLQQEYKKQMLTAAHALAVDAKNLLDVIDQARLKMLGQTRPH
UniProt P19883: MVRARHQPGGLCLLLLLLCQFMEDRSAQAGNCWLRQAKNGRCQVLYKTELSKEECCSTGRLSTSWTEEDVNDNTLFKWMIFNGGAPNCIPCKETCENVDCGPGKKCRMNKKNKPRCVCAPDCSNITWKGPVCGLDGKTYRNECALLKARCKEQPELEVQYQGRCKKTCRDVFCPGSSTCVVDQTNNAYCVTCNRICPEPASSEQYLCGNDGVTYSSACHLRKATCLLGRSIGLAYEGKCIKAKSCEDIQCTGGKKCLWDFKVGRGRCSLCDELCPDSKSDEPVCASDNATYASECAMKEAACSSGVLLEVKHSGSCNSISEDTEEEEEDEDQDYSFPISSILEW
UniProt P09038, whole entry, looked up: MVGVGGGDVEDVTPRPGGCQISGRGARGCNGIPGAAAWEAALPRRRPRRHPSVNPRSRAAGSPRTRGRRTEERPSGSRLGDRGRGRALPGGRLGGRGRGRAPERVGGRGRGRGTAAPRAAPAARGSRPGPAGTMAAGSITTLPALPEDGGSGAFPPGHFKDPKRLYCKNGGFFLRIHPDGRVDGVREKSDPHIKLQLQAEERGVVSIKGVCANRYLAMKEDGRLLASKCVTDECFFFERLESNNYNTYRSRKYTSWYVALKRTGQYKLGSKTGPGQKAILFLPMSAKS

Row | Compound | composite z-score [1] | composite z-score (Sam68 (KHDRBS1)) | composite z-score [2] | composite z-score [3] | composite z-score [4] | composite z-score [5] | composite z-score [6] | composite z-score [7] | composite z-score [8] | z-score [9]
1 | O=P(/N=C1/CC(CCCO)=CC(c2cccs2)N1Cc1cccc(OC(F)(F)F)c1)(Oc1ccccc1)Oc1ccccc1 (stereo not given) | 0.631 | 1.15 | -0.296 | 1.1 | 0.821 | 1.23 | 0.737 | 0.235 | -0.2 | 2.5
2 | CN1/C(=N\P(=O)(Oc2ccccc2)Oc2ccccc2)CC(c2ccc(CO)cc2)=CC1C1CC1 (stereo not given) | 1.22 | 0.814 | -0.695 | 0.967 | 0.637 | 1.33 | 0.528 | 0.894 | 0.0676 | 1.66
3 | O=P(/N=C1/CC(c2ccc(CO)cc2)=CC(c2cccs2)N1Cc1cccc(OC(F)(F)F)c1)(Oc1ccccc1)Oc1ccccc1 (stereo not given) | 0.473 | 1.31 | -0.528 | 1.24 | 1.28 | 0.661 | 0.91 | 0.838 | -0.565 | 1.61
4 | CN1/C(=N\P(=O)(Oc2ccccc2)Oc2ccccc2)CC(CCCO)=CC1c1cccs1 (stereo not given) | 1.29 | 0.54 | -0.239 | 0.629 | 1.22 | 2.5 | 0.583 | 1.28 | 0.342 | -0.681
5 | CN1/C(=N\P(=O)(Oc2ccccc2)Oc2ccccc2)CC(CCCO)=CC1C1CC1 (stereo not given) | 0.989 | 0.386 | -0.468 | 0.806 | -0.197 | 0.353 | 0.966 | 0.684 | 0.545 | 0.404
6 | COP(=O)(/N=C1/CC(CCCO)=CC(C2CC2)N1Cc1sc2ccccc2c1Cl)OC (stereo not given) | 0.595 | 1.28 | 0.596 | 1.07 | 2.43 | 0.382 | 0.923 | 1.27 | 0.998 | 1.08
7 | O=P(/N=C1/CC(CCCO)=CC(c2ccc(CN3CCCC3)cc2)N1Cc1sc2ccccc2c1Cl)(Oc1ccccc1)Oc1ccccc1 (stereo not given) | 0.125 | 0.13 | -0.594 | 0.851 | 2.33 | 0.111 | 0.588 | 0.241 | 0.06 | 0.516
8 | CN1/C(=N\P(=O)(Oc2ccccc2)Oc2ccccc2)CC(CCCO)=CC1c1ccc(CN2CCCC2)cc1 (stereo not given) | 0.959 | 0.834 | 0.345 | 1.13 | 0.69 | -0.0997 | 0.577 | 1.43 | 1.61 | -0.159
9 | O=P(/N=C1/CC(c2ccc(CO)cc2)=CC(C2CC2)N1Cc1sc2ccccc2c1Cl)(Oc1ccccc1)Oc1ccccc1 (stereo not given) | 0.471 | 1.29 | 0.685 | 0.897 | 0.92 | 0.802 | 0.947 | 1.25 | 1.14 | -0.648
10 | O=P(/N=C1/CC(CCCO)=CC(C2CC2)N1Cc1sc2ccccc2c1Cl)(Oc1ccccc1)Oc1ccccc1 (stereo not given) | 0.4 | 1.33 | 0.0175 | 0.696 | 1.54 | 1.2 | 0.906 | 0.322 | -0.138 | 1.8
11 | CC1C=C(CCCO)C/C(=N/P(=O)(Oc2ccccc2)Oc2ccccc2)N1Cc1cccc(OC(F)(F)F)c1 (stereo not given) | 0.184 | 0.95 | -0.373 | 0.818 | 0.645 | 0.841 | 0.647 | 0.617 | -0.117 | -0.61
12 | COP(=O)(/N=C1/CC(CCCO)=CC(C)N1Cc1cccc(OC(F)(F)F)c1)OC (stereo not given) | 0.353 | 0.286 | 0.0669 | 0.447 | 0.159 | 0.281 | 0.558 | 0.697 | 0.246 | 1.51
13 | COP(=O)(/N=C1/CC(CCCO)=CC(C2CC2)N1Cc1cccc(OC(F)(F)F)c1)OC (stereo not given) | 0.568 | -0.521 | -0.092 | 0.399 | 1.45 | -0.367 | 0.333 | 0.715 | -0.0206 | 1.26
14 | COP(=O)(/N=C1/CC(CCCO)=CC(c2ccc(CN3CCCC3)cc2)N1Cc1cc2c(cc1Br)OCO2)OC (stereo not given) | 0.538 | 0.0067 | 1.24 | 0.606 | 0.761 | 0.517 | 0.524 | 1.27 | 1.34 | 1.33
15 | O=P(/N=C1/CC(CCCO)=CC(c2ccc(CN3CCCC3)cc2)N1Cc1cc2c(cc1Br)OCO2)(Oc1ccccc1)Oc1ccccc1 (stereo not given) | 0.579 | 0.303 | -0.521 | 0.148 | 0.23 | 0.0738 | -0.166 | -0.143 | -0.0552 | -0.967
16 | COP(=O)(/N=C1/CC(CCCO)=CC(c2cccs2)N1C)OC (stereo not given) | 1.17 | 0.443 | -0.195 | 1.02 | 3.48 | 0.711 | 0.886 | 1.18 | 0.442 | 1.91
17 | COP(=O)(/N=C1/CC(c2ccc(CO)cc2)=CC(C2CC2)N1Cc1sc2ccccc2c1Cl)OC (stereo not given) | 0.8 | 0.872 | 1.33 | 1.05 | 1.96 | -0.708 | 0.807 | 1.31 | 1.34 | 2.32
18 | O=P(/N=C1/CC(c2ccc(CO)cc2)=CC(C2CC2)N1Cc1cc2c(cc1Br)OCO2)(Oc1ccccc1)Oc1ccccc1 (stereo not given) | 0.601 | 1.32 | 0.356 | 1.18 | 3.29 | 0.0371 | 1.02 | 1.2 | 1.1 | 1.6
19 | COP(=O)(/N=C1/CC(c2ccc(CO)cc2)=CC(c2cccs2)N1C)OC (stereo not given) | -0.0217 | -0.0011 | 0.0625 | 0.762 | 0.62 | -0.0565 | 0.341 | 1.47 | 1.13 | 1.42
20 | CN1/C(=N\P(=O)(Oc2ccccc2)Oc2ccccc2)CC(c2ccc(CO)cc2)=CC1c1cccs1 (stereo not given) | 0.983 | 0.238 | -0.649 | 0.653 | 1.68 | -0.161 | 0.395 | 0.381 | 0.196 | 1.41
21 | O=P(/N=C1/CC(CCCO)=CC(c2cccs2)N1Cc1cc2c(cc1Br)OCO2)(Oc1ccccc1)Oc1ccccc1 (stereo not given) | 0.92 | 1.3 | 0.0598 | 0.84 | 2.16 | 0.994 | 0.971 | 0.859 | 0.668 | 2
22 | COP(=O)(/N=C1/CC(c2ccc(CO)cc2)=CC(C2CC2)N1C)OC (stereo not given) | -0.614 | -0.36 | 0.081 | 1.02 | 0.246 | 0.0419 | 0.939 | 0.81 | 0.349 | 0.112
23 | COP(=O)(/N=C1/CC(CCCO)=CC(c2ccc(CN3CCCC3)cc2)N1Cc1sc2ccccc2c1Cl)OC (stereo not given) | 0.656 | 0.0518 | 1.13 | 0.436 | 0.535 | -0.748 | 0.358 | 1.41 | 1.81 | 2.42
24 | O=P(/N=C1/CC(CCCO)=CC(C2CC2)N1Cc1cccc(OC(F)(F)F)c1)(Oc1ccccc1)Oc1ccccc1 (stereo not given) | -0.153 | 0.787 | -0.686 | 0.41 | -0.117 | -0.397 | 0.799 | 0.389 | -0.179 | -0.648
25 | COP(=O)(/N=C1/CC(CCCO)=CC(c2ccc(CN3CCCC3)cc2)N1Cc1cccc(OC(F)(F)F)c1)OC (stereo not given) | 0.997 | 1.05 | 0.622 | 0.883 | 0.8 | 0.469 | 0.629 | 1.29 | 0.461 | 2.96
26 | COP(=O)(/N=C1/CC(c2ccc(CO)cc2)=CC(C2CC2)N1Cc1cc2c(cc1Br)OCO2)OC (stereo not given) | 0.59 | 0.125 | 0.406 | 0.686 | 0.275 | -0.186 | 0.72 | 1.28 | 0.73 | 1.39
27 | COP(=O)(/N=C1/CC(CCCO)=CC(C2CC2)N1Cc1cc2c(cc1Br)OCO2)OC (stereo not given) | 0.32 | 0.0554 | 0.288 | 0.418 | 0.997 | 0.158 | 0.469 | 1.01 | -0.0074 | -0.205
28 | COP(=O)(/N=C1/CC(CCCO)=CC(C2CC2)N1C)OC (stereo not given) | -0.421 | 0.206 | 0.124 | 0.397 | 0.142 | 0.198 | 1 | 0.739 | 0.131 | 1.14
29 | O=P(/N=C1/CC(CCCO)=CC(C2CC2)N1Cc1cc2c(cc1Br)OCO2)(Oc1ccccc1)Oc1ccccc1 (stereo not given) | 0.717 | 0.822 | -0.526 | 0.885 | 2.25 | 0.667 | 1 | 0.333 | -0.386 | -0.382
30 | COP(=O)(/N=C1/CC(CCCO)=CC(c2ccc(CN3CCCC3)cc2)N1C)OC (stereo not given) | -0.441 | 0.292 | -0.149 | -0.536 | 2.28 | 0.395 | -0.594 | 0.248 | -0.262 | 0.259
